Values quoted from earlier work in patent US20190388350A1, “FORMULATION” (priority 2018, published 2019).

CNCC[C@H](Oc1cccc2ccccc12)c1cccs1 [duloxetine hydrochloride]
pKa: 9.7

Structures can show the parent of a compound that is named as a salt.
